Experiment [1] addresses T1, mouse RIPK1 (Mus musculus, UniProt Q60855).
T1 sequence (Q60855 1-374): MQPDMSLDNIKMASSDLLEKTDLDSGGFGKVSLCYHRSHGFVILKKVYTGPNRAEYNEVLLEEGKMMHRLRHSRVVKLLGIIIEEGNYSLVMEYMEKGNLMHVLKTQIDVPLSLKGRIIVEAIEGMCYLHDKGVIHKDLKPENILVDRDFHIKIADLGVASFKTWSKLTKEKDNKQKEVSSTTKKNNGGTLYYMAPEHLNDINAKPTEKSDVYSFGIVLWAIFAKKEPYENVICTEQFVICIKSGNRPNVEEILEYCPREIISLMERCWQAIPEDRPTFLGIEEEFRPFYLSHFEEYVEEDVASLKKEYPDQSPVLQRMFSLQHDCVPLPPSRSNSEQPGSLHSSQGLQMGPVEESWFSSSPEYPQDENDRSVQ
The experiment is described as follows: biochemical.

Experiment [2] has as its target T2, mouse RIPK1 (Mus musculus, UniProt Q60855).
T2 sequence (Q60855 1-656): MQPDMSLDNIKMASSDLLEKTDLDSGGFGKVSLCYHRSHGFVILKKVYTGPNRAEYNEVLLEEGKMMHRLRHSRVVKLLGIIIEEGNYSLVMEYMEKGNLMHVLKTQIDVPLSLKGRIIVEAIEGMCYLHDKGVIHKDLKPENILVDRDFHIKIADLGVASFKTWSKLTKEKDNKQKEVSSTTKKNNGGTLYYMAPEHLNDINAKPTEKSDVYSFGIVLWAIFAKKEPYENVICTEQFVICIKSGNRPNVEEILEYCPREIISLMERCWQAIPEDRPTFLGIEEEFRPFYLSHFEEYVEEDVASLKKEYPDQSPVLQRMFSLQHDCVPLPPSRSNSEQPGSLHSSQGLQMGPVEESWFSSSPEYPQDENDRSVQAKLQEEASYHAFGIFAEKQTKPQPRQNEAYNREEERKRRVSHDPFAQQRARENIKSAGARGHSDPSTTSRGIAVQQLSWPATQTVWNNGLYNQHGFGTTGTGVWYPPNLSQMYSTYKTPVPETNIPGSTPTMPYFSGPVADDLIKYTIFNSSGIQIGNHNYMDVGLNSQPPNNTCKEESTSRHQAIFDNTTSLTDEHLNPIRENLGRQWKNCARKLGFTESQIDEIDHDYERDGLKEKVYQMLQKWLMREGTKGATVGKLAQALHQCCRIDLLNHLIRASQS
The experiment in a line: cell-based. To be noted: L929 cells, compound 30 min, 47 °C for 8 min denature; read-out: mouse_ITDRF-CETSA (EC50) / L929-CETSA (EC50) (converted). It is filed as cell-based.

Experiment [3] concerns the target T2, mouse RIPK1. The experiment is described as follows: cell-based. Particulars: mouse PBMCs suspended in plasma, 30 min, 47 °C for 8 min; one value per individual mouse; read-out: ITDRF EC50 in PBMCs.
The target of experiment [4] is T1, mouse RIPK1. To be noted: read-out: mRIPK1 enzyme (Ki); recombinant GST-His-mouse RIPK1 (1-374), TR-FRET competition. Background: TR-FRET usually uses a lanthanide donor and a delayed reading to cut background.

Where “and” joins values, the source holds several entries; their conditions need not be identical. Equal entries are not always repeated. Where two headings read alike, the source gives them in different places.

The term Ki denotes the equilibrium dissociation constant of an inhibitor or competing ligand from its target. In turn, `CNC(=O)c1ccc2c(c1)OC[C@H](N1CCc3c(nn(Cc4ccccc4)c3Cl)C1=O)C(=O)N2C` [Compound 23] displayed an inhibition constant (Ki) at mouse RIPK1 [1] of 130 nM. Moreover, the EC50 at mouse RIPK1 [2] is given as 290 nM.
As for `CN1C(=O)C(Cc2c[nH]c3ccccc23)NC1=S` (stereo not shown) [Nec-1, Necrostatin-1, reference compound], the EC50 on mouse RIPK1 [2] was 2800 nM.
With `CN1C(=O)[C@@H](N2CCc3cn(Cc4ccccc4F)nc3C2=O)COc2cc(C#N)ccc21` [Compound 25], the EC50 is 7400 nM and 5100 nM at mouse RIPK1 [3]; 1600 nM at mouse RIPK1 [2].
Turning to `CN1C(=O)[C@@H](N2CCc3c(nn(Cc4ccccc4)c3Cl)C2=O)COc2ccccc21` [Compound 18, (3S)-3-(2-benzyl-3-chloro-7-oxo-2,4,5,7-tetrahydro-6H-pyrazolo[3,4-c]pyridin-6-yl)-5-methyl-2,3-dihydro-1,5-benzoxazepin-4(5H)-one], at mouse RIPK1 [4], the inhibitory constant (Ki) is 98 nM.
On to `CN1C(=O)[C@@H](N2CCc3nn(Cc4ccccc4)cc3C2=O)COc2ccccc21` [Compound 15], for which the Ki on mouse RIPK1 [1] is > 3300 nM. Also, the EC50 at mouse RIPK1 [2] was > 30000 nM.
For `Nc1ncnc2occ(-c3ccc(NC(=O)Nc4cc(C(F)(F)F)ccc4F)cc3)c12` [GSK-compound 27, reference compound], in that order: 3 nM and 1600 nM.

These data come from PMC5638916, “CETSA quantitatively verifies in vivo target engagement of novel RIPK1 inhibitors in various biospecimens” (Scientific Reports, 2017).
